Patent publication US11897876B2, “Isoxazolidines as RIPK1 inhibitors and use thereof” (GENZYME CORPORATION, priority 2022, dated 2024)

Biological target: T1, hRIPK1 (aa 1-375) fusion protein (Homo sapiens, UniProt Q13546)
T1 sequence (Q13546 1-375): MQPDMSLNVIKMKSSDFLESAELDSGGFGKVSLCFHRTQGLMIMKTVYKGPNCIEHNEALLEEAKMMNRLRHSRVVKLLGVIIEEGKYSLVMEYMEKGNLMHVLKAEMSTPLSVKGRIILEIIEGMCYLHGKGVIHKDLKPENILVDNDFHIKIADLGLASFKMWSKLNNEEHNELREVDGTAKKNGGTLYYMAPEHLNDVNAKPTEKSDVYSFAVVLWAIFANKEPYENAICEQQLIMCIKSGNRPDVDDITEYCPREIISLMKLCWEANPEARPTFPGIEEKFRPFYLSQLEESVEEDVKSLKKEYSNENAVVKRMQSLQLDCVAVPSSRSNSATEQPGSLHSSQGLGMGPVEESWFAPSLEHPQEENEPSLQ
Assay: ADP-Glo kinase assay of RIPK1 catalytic activity (autophosphorylation)
Settings: read-out: ADP-Glo IC50; hRIPK1 3.6 μg/ml, ATP 50 μM, 240 min at room temperature

Row | SMILES | IC50
1 | O=C(C1CCN(c2nccc(-c3ccccc3)n2)CC1)N1N=CCC1c1ccccc1 (stereo not shown) [Comparator Example A, (3-Phenyl-3,4-dihydropyrazol-2-yl)-[1-(4-phenylpyrimidin-2-yl)-4-piperidyl]methanone, reference compound] | 0.041 µM
2 | Cc1nnc(-c2cc(N3CCC(C(=O)N4N=CC[C@H]4c4ccccc4)CC3)ncn2)o1 [Comparator Example C, [1-[6-(5-Methyl-1,3,4-oxadiazol-2-yl)pyrimidin-4-yl]-4-piperidyl]-[(3S)-3-phenyl-3,4-dihydropyrazol-2-yl]methanone, reference compound] | 0.037 µM
3 | Cc1nnc(-c2cc(N3CCC(C(=O)N4OCC[C@H]4c4ccccc4)CC3)ncn2)o1 [Comparator Example D, [1-[6-(5-Methyl-1,3,4-oxadiazol-2-yl)pyrimidin-4-yl]-4-piperidyl]-[(3S)-3-phenylisoxazolidin-2-yl]methanone, reference compound] | 0.031 µM
4 | Cc1nnc(-c2cc(N3CCC(C(=O)N4OCC[C@H]4c4cc(F)cc(C#N)c4)CC3)ncn2)o1 [Comparator Example E, 3-Fluoro-5-[(3S)-2-[1-[6-(5-methyl-1,3,4-oxadiazol-2-yl)pyrimidin-4-yl]piperidine-4-carbonyl]isoxazolidin-3-yl]benzonitrile, reference compound] | 0.035 µM
5 | Cc1nccn1-c1cc(N2CCC(C(=O)N3OCC[C@H]3c3cc(F)cc(C#N)c3)CC2)ncn1 [Example 1, 3-Fluoro-5-[(3S)-2-[1-[6-(2-methylimidazol-1-yl)pyrimidin-4-yl]piperidine-4-carbonyl]isoxazolidin-3-yl]benzonitrile] | 0.0158 µM
6 | Cc1c(F)cc([C@@H]2CCON2C(=O)C2CCN(c3cc(-n4ccnc4C)ncn3)CC2)cc1C#N [Example 2, 3-Fluoro-2-methyl-5-[(3S)-2-[1-[6-(2-methylimidazol-1-yl)pyrimidin-4-yl]piperidine-4-carbonyl]isoxazolidin-3-yl]benzonitrile] | 0.0121 µM
7 | Cn1nccc1-c1cc(N2CCC(C(=O)N3OCC[C@H]3c3cc(F)cc(F)c3)CC2)ncn1 [Example 4, [(3S)-3-(3,5-Difluorophenyl)isoxazolidin-2-yl]-[1-[6-(2-methylpyrazol-3-yl)pyrimidin-4-yl]-4-piperidyl]methanone] | 0.025 µM
8 | Cn1nccc1-c1cc(N2CCC(C(=O)N3OCC[C@H]3c3cc(F)cc(Cl)c3)CC2)ncn1 [Example 5, [(3S)-3-(3-Chloro-5-fluoro-phenyl)isoxazolidin-2-yl]-[1-[6-(2-methylpyrazol-3-yl)pyrimidin-4-yl]-4-piperidyl]methanone] | 0.013 µM
9 | Cc1n[nH]cc1-c1cc(N2CCC(C(=O)N3OCC[C@H]3c3cc(F)cc(C#N)c3)CC2)ncn1 [Example 6, 3-Fluoro-5-[(3S)-2-[1-[6-(3-methyl-1H-pyrazol-4-yl)pyrimidin-4-yl]piperidine-4-carbonyl]isoxazolidin-3-yl]benzonitrile] | 0.0178 µM
10 | Cc1nc(C2CC2)cn1-c1cc(N2CCC(C(=O)N3OCC[C@H]3c3cc(F)cc(C#N)c3)CC2)ncn1 [Example 7, 3-[(3S)-2-[1-[6-(4-Cyclopropyl-2-methyl-imidazol-1-yl)pyrimidin-4-yl]piperidine-4-carbonyl]isoxazolidin-3-yl]-5-fluoro-benzonitrile] | 0.0041 µM
11 | Cc1c(F)cc([C@@H]2CCON2C(=O)C2CCN(c3cc(-n4cc(C5CC5)nc4C)ncn3)CC2)cc1C#N [Example 8, 5-[(3S)-2-[1-[6-(4-Cyclopropyl-2-methyl-imidazol-1-yl)pyrimidin-4-yl]piperidine-4-carbonyl]isoxazolidin-3-yl]-3-fluoro-2-methyl-benzonitrile] | 0.0059 µM
12 | Cc1ncn(-c2cc(N3CCC(C(=O)N4OCC[C@H]4c4cc(F)cc(C#N)c4)CC3)ncn2)n1 [Example 10, 3-Fluoro-5-[(3S)-2-[1-[6-(3-methyl-1,2,4-triazol-1-yl)pyrimidin-4-yl]piperidine-4-carbonyl]isoxazolidin-3-yl]benzonitrile] | 0.0081 µM
13 | Cc1ncnn1-c1cc(N2CCC(C(=O)N3OCC[C@H]3c3cc(F)cc(C#N)c3)CC2)ncn1 [Example 11, 3-Fluoro-5-[(3S)-2-[1-[6-(5-methyl-1,2,4-triazol-1-yl)pyrimidin-4-yl]piperidine-4-carbonyl]isoxazolidin-3-yl]benzonitrile] | 0.0099 µM
14 | Cn1nncc1-c1cc(N2CCC(C(=O)N3OCC[C@H]3c3cc(F)cc(C#N)c3)CC2)ncn1 [Example 12, 3-Fluoro-5-[(3S)-2-[1-[6-(3-methyltriazol-4-yl)pyrimidin-4-yl]piperidine-4-carbonyl]isoxazolidin-3-yl]benzonitrile] | 0.013 µM
15 | Cc1nccn1-c1ncnc(N2CCC(C(=O)N3OCC[C@H]3c3cc(F)cc(C#N)c3)CC2)c1F [Example 13, 3-Fluoro-5-[(3S)-2-[1-[5-fluoro-6-(2-methylimidazol-1-yl)pyrimidin-4-yl]piperidine-4-carbonyl]isoxazolidin-3-yl]benzonitrile] | 0.0149 µM
16 | Cc1cnn(-c2ncnc(N3CCC(C(=O)N4OCC[C@H]4c4cc(F)c(C)c(C#N)c4)CC3)c2F)c1 [Example 14, 3-Fluoro-5-[(3S)-2-[1-[5-fluoro-6-(4-methylpyrazol-1-yl)pyrimidin-4-yl]piperidine-4-carbonyl]isoxazolidin-3-yl]-2-methyl-benzonitrile] | 0.0185 µM
